Sequences of proteins named here, by UniProt entry; tags and fusion partners are left off.
UniProt P34972, whole entry: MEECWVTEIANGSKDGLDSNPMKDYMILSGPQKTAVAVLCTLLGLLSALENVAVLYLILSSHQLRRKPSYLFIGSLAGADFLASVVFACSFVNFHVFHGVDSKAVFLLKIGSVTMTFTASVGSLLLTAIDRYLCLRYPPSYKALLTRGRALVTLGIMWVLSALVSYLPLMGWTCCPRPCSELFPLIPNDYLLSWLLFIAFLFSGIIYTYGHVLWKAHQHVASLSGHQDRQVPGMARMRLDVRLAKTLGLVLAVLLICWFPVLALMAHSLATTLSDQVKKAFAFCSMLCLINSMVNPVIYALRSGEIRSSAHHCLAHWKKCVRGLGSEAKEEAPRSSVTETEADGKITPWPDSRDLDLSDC

In ChEMBL document CHEMBL5096202, “Carbon-silicon switch led to the discovery of novel synthetic cannabinoids with therapeutic effects in a mouse model of multiple sclerosis” (Eur J Med Chem, 2021):

Columns and labels:
Cannabinoid receptor 2 [1] = biological target: T1, Cannabinoid receptor 2 (Homo sapiens, UniProt P34972); test: Agonist activity at recombinant human CB2 receptor expressed in CHO cells assessed as inhibition of forskolin-induced cAMP accumulation preincubated for 15 mins followed by forskolin stimulation and measured after 15 mins by HTRF assay; format: functional, cell-based
Cannabinoid receptor 2 [2] = biological target: T1, Cannabinoid receptor 2; test: Displacement of [3H]-CP55940 from recombinant human CB2 receptor expressed in CHO cells assessed as inhibition constant incubated for 120 mins by radioligand binding assay; format: cell-based

`CCCCCCC(C)(C)c1cc(OC)c([C@H]2C=C(CO)[C@H]3C[C@@H]2C3(C)C)c(OC)c1` gave an EC50 (Cannabinoid receptor 2 [1]) of 0.0755 µM and a Ki (Cannabinoid receptor 2 [2]) of 0.0437 µM.
